Reference: patent publication US20230340419A1, “METHODS FOR GENERATION OF MOUSE AND HUMAN URETERIC BUD ORGANOIDS AND COLLECTING DUCT ORGANOIDS” (University of Southern California, priority 2020, published 2023)

Tested on: Wnt11-RFP UB organoid
Assay: Stage III 1st round screening of growth factors and small molecules for UB organoid culture condition
Type: cell-based, mouse
Conditions: reagent added to FGF9 + C3 + TTNPB + GDNF; compared to that control group
From the text: We employed this Wnt11-RFP reporter system as a readout to screen for a culture condition that maintained the progenitor identity of UPCs in vitro. T-shaped UBs were manually isolated from E11.5 kidneys of Wnt11-RFP mice, and immediately embedded into Matrigel to set up a 3D culture platform that supported epithelial branching. In this 3D culture format, built on previous efforts towards the ex vivo culture of UB, hundreds of different combinations of growth factors and small molecules were tested (see also the Materials and Techniques section below for details under subheading “Screening for optimal UB culture condition”).
We systematically screened the optimal UB culture condition in four different stages (Stages I-IV).
In Stage III, based on the optimized recipe consisting of FGF9, TTNPB, CHIR99021 (3 μM) and GDNF, we preformed our 1st round of screening of growth factors and small molecules targeting major developmental pathways (e.g. TGF-β, BMP, Wnt, FGF, Hedgehog and Notch) and others. The branching morphogenesis, growth rate and Wnt11-RFP were recorded as readouts (Table 1). […] Representative images were taken at least for LDN193189, A83-01, and R-Spondin 1. […]

TNF-α: reagent tested in screening
Wnt11-RFP: Worse
